Values of other authors, collected in patent publication US6998404B2, “Treatment or prevention of acute renal failure” (priority 2001, dated 2006).

Details: patients, aminophylline toxicity; cited from earlier work

Cn1c(=O)c2[nH]cnc2n(C)c1=O [aminophylline]
serum theophylline level at which tachyarrhythmias occur (usually supraventricular but including ventricular tachycardia): 30-40 micrograms/ml
